The target in one experiment is Histamine H1 receptor (Rattus norvegicus, UniProt P31390).
In experiment [1] the target is Serotonin 1 (5-HT1) receptor (Rattus norvegicus, UniProt P28564+P30940+P19327+P28565). Description: Binding affinity towards 5-hydroxytryptamine 1 receptor was measured using radioligand ([3H]5-HT) binding assay. It counts as protein assay.

By UniProt entry, the sequences of proteins in these tests, tags left out. Where a name states a change or a piece, a line headed by the entry shows the natural chain unless it says otherwise.
UniProt P31390, whole entry: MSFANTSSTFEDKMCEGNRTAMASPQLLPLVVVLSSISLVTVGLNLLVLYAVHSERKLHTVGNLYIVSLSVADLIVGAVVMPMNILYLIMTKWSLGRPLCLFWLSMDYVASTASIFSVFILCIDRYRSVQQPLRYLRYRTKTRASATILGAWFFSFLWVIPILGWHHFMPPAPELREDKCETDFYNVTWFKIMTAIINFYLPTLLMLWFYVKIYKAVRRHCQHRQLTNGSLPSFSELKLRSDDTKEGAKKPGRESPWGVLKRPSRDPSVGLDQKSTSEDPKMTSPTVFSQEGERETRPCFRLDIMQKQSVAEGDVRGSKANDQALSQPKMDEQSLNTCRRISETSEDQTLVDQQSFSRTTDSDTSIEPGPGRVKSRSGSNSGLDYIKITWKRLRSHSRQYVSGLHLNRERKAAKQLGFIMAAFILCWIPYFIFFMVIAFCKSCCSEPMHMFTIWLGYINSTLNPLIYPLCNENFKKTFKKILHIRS
UniProt P28564: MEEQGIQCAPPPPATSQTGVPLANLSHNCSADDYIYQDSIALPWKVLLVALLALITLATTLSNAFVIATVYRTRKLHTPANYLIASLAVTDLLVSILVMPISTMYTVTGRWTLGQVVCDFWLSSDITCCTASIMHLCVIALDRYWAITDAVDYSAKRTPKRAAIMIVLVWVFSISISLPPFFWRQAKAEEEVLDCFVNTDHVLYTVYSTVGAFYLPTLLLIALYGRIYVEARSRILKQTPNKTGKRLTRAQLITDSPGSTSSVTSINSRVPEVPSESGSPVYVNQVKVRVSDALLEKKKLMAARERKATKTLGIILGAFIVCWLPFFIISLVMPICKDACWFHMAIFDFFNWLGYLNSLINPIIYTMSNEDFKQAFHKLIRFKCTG
UniProt P30940: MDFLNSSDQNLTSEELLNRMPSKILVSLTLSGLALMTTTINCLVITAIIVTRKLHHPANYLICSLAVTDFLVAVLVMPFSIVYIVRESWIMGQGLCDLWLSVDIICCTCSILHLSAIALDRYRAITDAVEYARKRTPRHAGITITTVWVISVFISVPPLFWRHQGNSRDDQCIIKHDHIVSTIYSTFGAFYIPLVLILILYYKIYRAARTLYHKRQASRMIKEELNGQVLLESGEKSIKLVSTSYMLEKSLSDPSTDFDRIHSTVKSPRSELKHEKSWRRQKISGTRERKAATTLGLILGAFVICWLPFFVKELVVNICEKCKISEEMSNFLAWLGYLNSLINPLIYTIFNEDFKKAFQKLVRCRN
UniProt P19327: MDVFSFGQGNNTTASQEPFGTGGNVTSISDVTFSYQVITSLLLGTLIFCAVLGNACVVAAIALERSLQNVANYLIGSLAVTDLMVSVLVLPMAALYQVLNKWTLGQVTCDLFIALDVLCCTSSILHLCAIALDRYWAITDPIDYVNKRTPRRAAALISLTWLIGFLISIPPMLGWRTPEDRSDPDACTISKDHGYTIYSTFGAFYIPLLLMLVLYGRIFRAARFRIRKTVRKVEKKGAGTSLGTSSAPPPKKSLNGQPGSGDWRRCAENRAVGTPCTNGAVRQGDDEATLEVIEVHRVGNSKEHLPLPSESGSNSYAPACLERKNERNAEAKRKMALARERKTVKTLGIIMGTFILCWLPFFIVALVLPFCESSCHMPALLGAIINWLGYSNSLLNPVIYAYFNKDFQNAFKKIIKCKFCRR
UniProt P28565: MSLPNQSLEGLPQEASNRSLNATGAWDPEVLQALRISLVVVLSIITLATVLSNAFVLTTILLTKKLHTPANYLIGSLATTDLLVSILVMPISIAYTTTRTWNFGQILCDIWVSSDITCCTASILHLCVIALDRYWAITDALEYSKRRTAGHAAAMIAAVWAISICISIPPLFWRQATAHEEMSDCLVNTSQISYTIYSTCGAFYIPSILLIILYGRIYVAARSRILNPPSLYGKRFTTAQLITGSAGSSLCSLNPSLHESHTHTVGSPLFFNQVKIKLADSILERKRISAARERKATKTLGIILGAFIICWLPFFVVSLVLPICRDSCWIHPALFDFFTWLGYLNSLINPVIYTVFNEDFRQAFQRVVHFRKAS

In the case of `CSc1ccc2c(c1)N(CCC1CCCCN1C)c1ccccc1S2` (configuration not stated) [THIORIDAZINE], half-maximal inhibition on Histamine H1 receptor (IC50) required 99 nM.
Turning to `Cl.O=C1CC2(CCCC2)CC(=O)N1CCCCN1CCN(c2nsc3ccccc23)CC1` [TIOSPIRONE HYDROCHLORIDE], in experiment [1], the IC50 (in general, the concentration that gives 50% inhibition) was determined as 13 nM.

For the origin of these results see ChEMBL document CHEMBL1123413, “Synthesis and biological evaluation of 1-(1,2-benzisothiazol-3-yl)- and (1,2-benzisoxazol-3-yl)piperazine derivatives as potential antipsychotic agents” (J Med Chem, 1986).
